This is a selection; strong and weak results do not stand in their true shares. Some tests of the compounds listed are not included; inactive here does not mean inactive elsewhere. The source made the active and inactive calls.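 The calls were made as follows: active = primary inhibition of 50% or more at 10 µM, then 40% or more on retest; inactive = the rest.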

The chains behind the UniProt entries cited, without tags or fusion partners.
UniProt P05107, whole entry, looked up: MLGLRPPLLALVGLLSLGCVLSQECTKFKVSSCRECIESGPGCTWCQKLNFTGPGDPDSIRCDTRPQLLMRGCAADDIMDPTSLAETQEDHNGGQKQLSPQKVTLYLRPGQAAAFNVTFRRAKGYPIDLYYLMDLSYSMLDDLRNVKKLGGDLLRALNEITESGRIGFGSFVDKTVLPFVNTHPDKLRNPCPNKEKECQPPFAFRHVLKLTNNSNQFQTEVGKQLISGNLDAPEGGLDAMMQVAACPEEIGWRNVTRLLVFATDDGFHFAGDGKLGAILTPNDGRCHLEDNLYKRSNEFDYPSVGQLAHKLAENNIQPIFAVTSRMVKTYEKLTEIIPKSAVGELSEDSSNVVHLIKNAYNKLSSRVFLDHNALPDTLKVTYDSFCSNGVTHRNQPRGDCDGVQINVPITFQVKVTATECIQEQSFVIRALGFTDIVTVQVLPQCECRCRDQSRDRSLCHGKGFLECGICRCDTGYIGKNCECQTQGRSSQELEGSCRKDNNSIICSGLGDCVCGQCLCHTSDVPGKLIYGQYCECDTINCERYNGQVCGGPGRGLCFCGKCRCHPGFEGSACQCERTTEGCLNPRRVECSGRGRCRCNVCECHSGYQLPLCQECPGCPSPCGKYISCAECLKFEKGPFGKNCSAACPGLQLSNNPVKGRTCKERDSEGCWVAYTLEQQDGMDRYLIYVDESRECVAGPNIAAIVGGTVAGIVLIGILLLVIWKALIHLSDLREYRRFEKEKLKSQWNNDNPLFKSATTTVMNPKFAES

This assay concerns the target Integrin beta-2 (Homo sapiens) + Integrin alpha-M (Homo sapiens) (UniProt P05107+P11215). Nature of the assay: inhibitors of CD11b/CD18 adhesion to fibrinogen, primary screen, K562 cells, luminescence (AID 1497). To be noted: ATPlite luminescence, at 10 µM, hits give high values, Mn2+ added to activate the integrin.
For `O=C(OC1CN2CCC1CC2)C(CO)(c1ccccc1)c1ccccc1` (stereo not drawn), the inhibition was inactive: -5.1%.

For the molecule `CN(C)c1cccc(C(=O)NCC2(N(C)C)CCCCC2)c1`, the inhibition was inactive: -2.6%.

On to `CN(C)C1CCCC1OC(=O)C(O)(c1ccccc1)c1ccccc1` (stereo not drawn), for which the inhibition was inactive: -4%.

Values taken from PubChem BioAssay AID1497 (Sanford-Burnham Center for Chemical Genomics, 2009).
